Test results: patent US8912226B2 (priority 2012, dated 2014)

Columns and labels:
[1] = system: male albino rats (Sprague Dawley); conditions: alone, mean ± SEM, n = 10
[2] = system: rat; test: Randall Selitto test in rats (Carrageenin-induced inflammatory pain); format: in vivo; conditions: for ED50: (95% CI)

CN(C)[C@]1(c2ccccc2)CC[C@]2(CC1)OCCc1c3cc(F)ccc3[nH]c12
% MPE (Maximum possible effect) ([1]; 0.0046 mg/kg i.v., 30 min): 12.2 ± 2.69 % MPE
% MPE (Maximum possible effect) ([1]; 0.0046 mg/kg i.v., 60 min): 10.6 ± 3.51 % MPE
% MPE (Maximum possible effect) ([1]; 0.0046 mg/kg i.v., 90 min): 2.88 ± 2.27 % MPE
% MPE (Maximum possible effect) ([1]; 0.01 mg/kg i.v., 30 min): 43.2 ± 2.61 % MPE
% MPE (Maximum possible effect) ([1]; 0.01 mg/kg i.v., 60 min): 34.1 ± 4.88 % MPE
% MPE (Maximum possible effect) ([1]; 0.01 mg/kg i.v., 90 min): 7.71 ± 2.23 % MPE
timepoint of peak effect ([2]; applied alone (first ingredient i.v., second ingredient i.p.)): 15 min p. appl.
ED50 ([2]; applied alone i.v., 15 min p. appl.; series a) (Indometacin)): 3.38 (3.01-3.74) μg/kg
ED50 ([2]; applied alone i.v., 15 min p. appl.; series b) (Diclofenac sodium)): 3.31 (2.85-3.75) μg/kg

Where two headings read alike, the source gives them in different places.
